Assay outcomes as filed in PubChem BioAssay.
Rango-impB inh: qHTS Assay for Inhibitors of Rango (Ran-regulated importin-beta cargo) - Importin beta complex formation; Rango CFP/YFP FRET sensor + importin beta, 45 min; Potency, µM (top dose mostly 92.2 µM), without a hit: at the top dose inhibition of complex formation; 0.031% of 340,000 active; Importin subunit beta-1 (Homo sapiens), Q14974; calls by dose curve;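 also: 0% = DMSO wells and 100% = buffer wells lacking importin beta; nearly all actives have a fitted effect of over 15% in size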
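FRET biosensor (snurportin 1 IBB flanked by EYFP and cerulean), 50 nM, with compound 5 min, then 0.125 microM importin beta in PBS, 1 mM DTT, 0.02% Tween-20, 0.1% BSA. CFP/YFP ratio read after 45 min at room temperature; pre-read flags interference.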
Rango release inh: qHTS Assay for Inhibitors of RanGTP induced Rango (Ran-regulated importin-beta cargo) - Importin beta complex dissociation. Biochemical FRET Rango-importin beta, RanGTP-induced dissociation. Potency, µM (doses to about 46.1 µM), for inactives: at the highest dose activity change, negative = inhibition. AID 540253, 2011. 0.071% of 340,000 active; calls by dose curve; also: % of control where 0% means no effect; nearly all actives have a fitted effect of over 45% in size
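Quantitative HTS using a FRET biosensor: 0.1 uM Rango, 0.25 uM importin beta, 0.6 uM Ran, 2 mM GTP, 0.2 uM RCC1 final, PBS with DTT, Tween-20 and BSA. Post-read taken 45 min after Ran addition.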
Vif-APOBEC3G blk: qHTS for Inhibitors of Vif-A3G Interactions: qHTS; HeLa A3G-eYFP + Vif (tagged APOBEC3G with the HIV-1 protein that degrades it), YFP fluorescence, overnight; Potency, µM (top dose mostly 46.1 µM), for inactives: at the top dose activity, negative = active, usual class: inhibitors; 0.076% of 410,000 active; also: % is scaled to controls: 0 for no effect and ±100 for the full control effect; nearly all actives have a fitted effect of over 60% in size
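HeLa cells stably expressing Vif and C-terminally eYFP-tagged A3G, seeded overnight at 37 deg C, then exposed to compound by pintool overnight at 37 deg C. Rise in yellow fluorescence (Ex 488/Em 500-530, Acumen) marks blocked Vif-driven A3G degradation.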
Vif-A3F inh: qHTS for Inhibitors of Vif-A3F Interactions: qHTS. Potency, µM (titrated, usually from 46.1 µM), for inactives: top-dose activity, negative = active. HeLa A3F-eYFP + Vif (tagged APOBEC3F with the HIV-1 protein that degrades it), YFP fluorescence increase. 0.2% of 390,000 active; also: % of control where 0% means no effect; nearly all actives have a fitted effect of over 65% in size
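HeLa cells stably expressing A3F-eYFP plus Vif, plated and incubated overnight at 37 deg C, then exposed to compounds overnight at 37 deg C. Blocked degradation read as raised yellow fluorescence (Ex 488/Em 500-530).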
Epigenetic derep: Quantitative High-Throughput Screen for Regulators of Epigenetic Control; murine LDR cells, GFP reporter derepression, 30 h; Potency, µM (titrated, usually from 53.9 µM), inactives show at the highest dose GFP activation, actives largely listed as activators; 0.2% of 280,000 active; AID 1865, 2009; also: % of control where 0% means no effect; nearly all actives have a fitted effect of over 60% in size
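In this reporter-derepression format, murine cells bearing a silenced integrated CMV-GFP locus incubate with test compound (30 h, 37 C), then are washed and imaged; fluorescent objects of 20–120 um count as induced cells.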
* hit, by the source's call; ? = inconclusive; . = no result given; [ ] = remark or other dose. An excerpt weighted towards active compounds, which were near 0.42% of everything screened. Unless noted, calls follow the shape of the dose curve; as a rule, active = well fitted curve in the direction sought with a large enough effect; inconclusive = small, poorly fitted or top-dose-only effect, or another doubt; inactive = no such curve, though single readings can be large; an effect the other way counts as inactive or inconclusive. Potency is read from the fitted curve at half-maximal effect.

The chains behind the UniProt entries cited, without tags or fusion partners.
Importin subunit beta-1 (Homo sapiens), Q14974, UniProt Q14974, whole entry, looked up: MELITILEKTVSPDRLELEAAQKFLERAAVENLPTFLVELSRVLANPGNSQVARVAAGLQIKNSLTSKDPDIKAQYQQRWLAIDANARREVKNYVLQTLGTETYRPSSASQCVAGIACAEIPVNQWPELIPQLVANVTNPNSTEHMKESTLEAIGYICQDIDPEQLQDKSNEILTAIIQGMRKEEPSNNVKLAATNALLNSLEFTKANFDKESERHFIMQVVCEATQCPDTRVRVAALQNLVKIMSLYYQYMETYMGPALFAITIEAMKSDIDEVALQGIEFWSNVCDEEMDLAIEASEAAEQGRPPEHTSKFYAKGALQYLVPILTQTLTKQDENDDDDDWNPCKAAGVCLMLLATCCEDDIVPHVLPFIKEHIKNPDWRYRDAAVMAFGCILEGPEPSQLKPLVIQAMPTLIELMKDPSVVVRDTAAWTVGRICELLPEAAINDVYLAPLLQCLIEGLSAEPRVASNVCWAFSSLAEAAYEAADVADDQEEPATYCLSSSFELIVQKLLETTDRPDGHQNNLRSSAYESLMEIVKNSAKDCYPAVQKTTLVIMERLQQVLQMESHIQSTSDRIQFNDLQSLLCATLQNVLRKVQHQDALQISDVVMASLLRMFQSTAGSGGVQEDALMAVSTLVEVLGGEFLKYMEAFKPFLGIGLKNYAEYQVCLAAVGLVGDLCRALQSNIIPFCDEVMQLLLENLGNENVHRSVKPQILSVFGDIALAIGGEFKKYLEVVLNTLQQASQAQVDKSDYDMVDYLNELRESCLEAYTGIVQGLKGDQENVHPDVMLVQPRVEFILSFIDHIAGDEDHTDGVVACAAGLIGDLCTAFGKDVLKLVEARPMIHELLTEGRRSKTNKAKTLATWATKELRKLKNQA

1: COCCCNC(=O)c1c(NC(=O)Cc2coc3c(C)c(C)ccc23)sc2c1CCCC2
2: COc1ccc2ccccc2c1/C=N/NC(=S)Nc1cc(S(=O)(=O)N2CCOCC2)ccc1N1CCOCC1
3: CCOc1cccc(/C=N/NC(=S)Nc2cc(S(=O)(=O)N3CCOCC3)ccc2N2CCOCC2)c1O
4: COc1ccccc1N1C(=O)C(Cl)=C(Nc2ccccc2O)C1=O
5: Cc1ccc(S(=O)(=O)c2c(Nc3cc(F)ccc3F)sc(C(=O)c3ccc(F)cc3)c2N)cc1
6: COc1cccc(C2=NS(=O)(=O)N(C)C(C(=O)Nc3ccccc3SC)=C2)c1
7: CCOc1ccc(S(=O)(=O)N2CCN(c3cc(Cl)ccc3Cl)CC2)c2ccccc12
8: CN(C)S(=O)(=O)c1ccc(Cl)c(NC(=O)CSc2nc3c(cc2C#N)C(=O)CCC3)c1
9: CC(C)(C)n1ncc2c(=O)n(Cc3ccc(Cl)c(OC(F)(F)F)c3)cnc21
10: CC(C)COc1ccc(C(=O)N/C(=C/c2cccc([N+](=O)[O-])c2)C(=O)O)cc1

| assay / compound | 1 | 2 | 3 | 4 | 5 | 6 | 7 | 8 | 9 | 10 |
| --- | --- | --- | --- | --- | --- | --- | --- | --- | --- | --- |
| Rango-impB inh | . | ? | ? | 3% | . | . | . | ? | . | 0% |
| Rango release inh | . | -12% | 3.7µM* | -10% | . | . | . | -15% | . | -15% |
| Vif-APOBEC3G blk | -1% | -2% | -2% | ? | 0% | -4% | 1% | 1% | -1% | 10µM* |
| Vif-A3F inh | 2% | 13% | 5% | 22µM* | 1% | -1% | -4% | -8% | . | -9% |
| Epigenetic derep | -2% | 1% | -1% | 13% | -1% | -6% | 0% | 25µM* | . | 0% |

11: CC(C)COc1ccc(C(=O)N/C(=C\c2cccc([N+](=O)[O-])c2)C(=O)O)cc1
12: O=C1/C(=C/C=C/c2ccco2)SC(=S)N1c1ccc(O)cc1
13: CC(C)C(C(=O)O)N1C(=O)/C(=C/C=C/c2ccco2)SC1=S (stereo not given)
14: CCC(Sc1nc2c(sc3ccccc32)c(=O)n1CCc1ccc(OC)c(OC)c1)C(=O)N(CC)CC (stereo not given)
15: O=C(NC1CCCCC1)c1cccc2c1C(=O)c1ccc(-c3ccc(OC(F)(F)F)cc3)cc1S2(=O)=O
16: COCCNC(=O)c1cccc2c1C(=O)c1ccc(N3CCOCC3)cc1S2(=O)=O
17: O=C(NCc1ccccc1)c1cccc2c1C(=O)c1ccc(/C=C/c3ccccc3)cc1S2(=O)=O
18: O=C(NCC1CCCO1)c1cccc2c1C(=O)c1ccc(N3CCC(Cc4ccccc4)CC3)cc1S2(=O)=O (stereo not given)
19: O=C(NCc1ccccc1Cl)c1cccc2c1C(=O)c1ccc(-c3ccc(OC(F)(F)F)cc3)cc1S2(=O)=O
20: O=C(NC1CCCC1)c1cccc2c1C(=O)c1ccc(/C=C/c3ccccc3)cc1S2(=O)=O

| assay / compound | 11 | 12 | 13 | 14 | 15 | 16 | 17 | 18 | 19 | 20 |
| --- | --- | --- | --- | --- | --- | --- | --- | --- | --- | --- |
| Rango-impB inh | -2% | -4% | ? | . | -5% | 46µM* | ? | ? | 1% | ? |
| Rango release inh | 20% | -2% | 0.0052µM* | . | 0% | -6% | ? | ? | 28% | ? |
| Vif-APOBEC3G blk | 0% | 2% | -10% | 1% | 0% | 1% | -30% | ? | -9% | -1% |
| Vif-A3F inh | -2% | -4% | -9% | 2% | -1% | 2% | 10µM* | 25µM* | 13µM* | ? |
| Epigenetic derep | 0% | 3% | -1% | -1% | . | . | . | . | . | . |

3 entries already listed, arranged by their value in Epigenetic derep, highest first.
#	compound	Rango-impB inh	Rango release inh	Vif-A3F inh	Epigenetic derep
12	O=C1/C(=C/C=C/c2ccco2)SC(=S)N1c1ccc(O)cc1	-4%	-2%	-4%	3%
11	CC(C)COc1ccc(C(=O)N/C(=C\c2cccc([N+](=O)[O-])c2)C(=O)O)cc1	-2%	20%	-2%	0%
13	CC(C)C(C(=O)O)N1C(=O)/C(=C/C=C/c2ccco2)SC1=S (stereo not given)	?	0.0052µM*	-9%	-1%

Other records.
21: CC(C)(C)n1ncc2c(=O)n(Cc3c(F)ccc(Cl)c3Cl)cnc21
22: Cc1ccc(CNC(=O)c2cccc3c2C(=O)c2ccc(N4CCOCC4)cc2S3(=O)=O)cc1
23: Cc1ccc(CNC(=O)c2cccc3c2C(=O)c2ccc(N4CCCCC4)cc2S3(=O)=O)cc1
24: CC(=O)N1c2ccc(S(=O)(=O)NCC3CCC(C(=O)Nc4cccc(C)c4C)CC3)cc2CC1C (stereo not given)
25: CCC(C)(C)C(=O)Nc1cc([N+](=O)[O-])ccc1Cl
26: CCN(CC)c1nc(C)c(C(=S)Nc2cc([N+](=O)[O-])ccc2Cl)s1
27: CN(C)c1ccc(/C=C(/C#N)C(=O)Nc2nc3c(s2)CCN(Cc2ccccc2)C3)cc1
28: CCc1ccccc1NC(=O)Nc1nnc(N(C)Cc2ccccc2)s1
29: N#Cc1c(C(F)(F)F)cc(-c2cccs2)nc1SCC(=O)Nc1cccc(C(F)(F)F)c1
30: N#Cc1ccc(-c2cccs2)nc1SCC(=O)Nc1cccc(C(F)(F)F)c1

| assay / compound | 21 | 22 | 23 | 24 | 25 | 26 | 27 | 28 | 29 | 30 |
| --- | --- | --- | --- | --- | --- | --- | --- | --- | --- | --- |
| Rango-impB inh | . | ? | ? | . | 0% | ? | ? | . | . | . |
| Rango release inh | . | ? | ? | . | -22% | -18% | ? | . | . | . |
| Vif-APOBEC3G blk | 1% | -8% | ? | 3% | -1% | 5% | 5.6µM* | -2% | ? | -14% |
| Vif-A3F inh | . | 1% | 22µM* | 2% | 2% | 11µM* | ? | -4% | 10µM* | -21% |
| Epigenetic derep | . | . | . | -1% | 0% | 4% | . | 6% | 16µM* | 3% |

Quoted at random: 2 entries already listed, in no set order.
29: N#Cc1c(C(F)(F)F)cc(-c2cccs2)nc1SCC(=O)Nc1cccc(C(F)(F)F)c1
22: Cc1ccc(CNC(=O)c2cccc3c2C(=O)c2ccc(N4CCOCC4)cc2S3(=O)=O)cc1

| assay / compound | 29 | 22 |
| --- | --- | --- |
| Rango-impB inh | . | ? |
| Rango release inh | . | ? |
| Vif-APOBEC3G blk | ? | -8% |
| Vif-A3F inh | 10µM* | 1% |
| Epigenetic derep | 16µM* | . |

Following part:
31: N#Cc1c(C(F)(F)F)cc(-c2cccs2)nc1SCC(=O)Nc1ccc(Cl)cc1
32: CC(C)(C)n1ncc2c(=O)n(Cc3ccc(SC(F)(F)F)cc3)cnc21
33: CCOC(=O)c1scc(-c2ccccc2)c1S(=O)(=O)Nc1ccc(N(C)C)cc1
34: CCN1/C(=C/c2cc[n+](C)cc2)C=Cc2cc(C)ccc21
35: CCN1/C(=C/c2ccc3ccccc3[n+]2CCCS(=O)(=O)[O-])C=Cc2cc(C)ccc21
36: CCCNC(=O)Cn1c(=O)/c(=C\c2ccc(-c3ccc([N+](=O)[O-])cc3)o2)s/c1=C\C(=O)C(C)(C)C
37: O=S(=O)(NCC(c1ccco1)N1CCN(c2ccc(F)cc2)CC1)c1cc(F)ccc1F (stereo not given)
38: Cc1cccc(N2CCN(S(=O)(=O)c3ccc4c(c3)OCCO4)CC2)c1C
39: CCN(CC)C(=S)SSC(=S)N(CC)CC
40: CCOc1ccc(NC(=O)/C(C#N)=C\c2ccc(N3CCCC3)c(C)c2)cc1

| assay / compound | 31 | 32 | 33 | 34 | 35 | 36 | 37 | 38 | 39 | 40 |
| --- | --- | --- | --- | --- | --- | --- | --- | --- | --- | --- |
| Rango-impB inh | . | . | . | 0% | ? | ? | . | ? | 5% | ? |
| Rango release inh | . | . | . | -8% | 5% | ? | . | 18µM*[inhibitor] | 2% | ? |
| Vif-APOBEC3G blk | 10µM* | 0% | -10% | ? | 2% | 2% | 6% | 0% | -10% | ? |
| Vif-A3F inh | ? | . | -11% | 13µM* | 7% | -394% | -4% | 0% | 8% | 11µM* |
| Epigenetic derep | 10µM* | . | 1% | ? | . | 0.2µM* | 0% | . | 0.25µM* | . |

41: CCOc1ccc(-c2cccc(NS(=O)(=O)c3c(C)cc(C)cc3C)c2)nn1
42: c1ccc2c(CCc3c[nH]c4ccccc34)ccnc2c1
43: c1ccc2c(Cc3c[nH]c4ccccc34)c[nH]c2c1
44: CCOC(=O)c1nnc2c(-c3ccc(Cl)cc3)c(C)nn2c1N
45: CCCCOc1ccc2c(c1)/C(=C(\C(Cl)=C(Cl)Cl)[N+](=O)[O-])N2
46: CCOc1ccc2c(c1)/C(=C(\C(Cl)=C(Cl)Cl)[N+](=O)[O-])N2
47: Cc1ncnc2nc[nH]c12

| assay / compound | 41 | 42 | 43 | 44 | 45 | 46 | 47 |
| --- | --- | --- | --- | --- | --- | --- | --- |
| Rango-impB inh | . | . | . | . | ? | ? | . |
| Rango release inh | . | . | . | . | ? | ? | . |
| Vif-APOBEC3G blk | -3% | 11µM* | . | 2% | ? | ? | -17% |
| Vif-A3F inh | -7% | . | . | -2% | 22µM* | ? | . |
| Epigenetic derep | -2% | . | 0% | -1% | 0% | 0% | . |
